Literature values, collected in paper PMC4120060 (Psychoneuroendocrinology, 2014).

Conditions: humans, intranasal; ref Born et al., 2002; cited from earlier work

Substance: insulin
- CSF concentration of the peptide after nasal delivery: increased concentrations in cerebrospinal fluid (CSF) over baseline levels
